Amino acid sequences for entries named in this document (tags omitted).
UniProt O77255, entry or part of it L506K: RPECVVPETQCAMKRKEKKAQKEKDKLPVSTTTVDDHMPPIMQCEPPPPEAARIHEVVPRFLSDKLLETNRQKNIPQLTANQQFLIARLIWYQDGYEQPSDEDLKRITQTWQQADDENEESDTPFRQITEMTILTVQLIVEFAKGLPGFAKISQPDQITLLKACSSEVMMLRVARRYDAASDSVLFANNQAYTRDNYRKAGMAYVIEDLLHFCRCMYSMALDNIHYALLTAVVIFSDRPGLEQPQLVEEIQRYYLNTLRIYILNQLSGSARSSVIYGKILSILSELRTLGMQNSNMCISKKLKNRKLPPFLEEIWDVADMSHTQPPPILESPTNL

In patent publication US9163256B2, “Mutant receptors and their use in a nuclear receptor-based inducible gene expression system” (priority 2004, dated 2015):

Molecular target: CfEcR-DEF mutant L223K (Choristoneura fumiferana, UniProt O77255, L506K)
Assay: GAL4-driven luciferase reporter assay in NIH3T3 cells
Type: cell-based
Method: This construct was prepared in the same way as in switch 1.1 above except wild-type CfEcR-DEF was replaced with mutant CfEcR-DEF comprising a ligand binding domain comprising a substitution mutation selected from Table 1 below.
DNAs were transfected into mouse NIH3T3 cells (ATCC) as follows. Standard methods for culture and maintenance of the cells were followed. Cells were harvested and plated 96-well plates at 2,500 cells per well, in 50 μL of growth medium containing 10% fetal bovine serum (FBS). Twenty-four hours later, the cells were treated with 35 μL of serum-free growth medium containing either dimethylsulfoxide (DMSO; control) or a DMSO solution of ligand. The cells were then transfected using Superfect (Qiagen Inc.) transfection reagent. For each well, 0.625 μL of Superfect was mixed with 14.2 μL of serum-free growth medium. 0.16 μg of reporter construct and 0.04 μg of each receptor construct were added to the transfection reagent mix. […]
Reporter Assays: Cells were harvested 40 hours after adding ligands. […] Luciferase activity was measured using Dual-Luciferase reporter assay system from Promega Corporation following the manufacturer's instructions. Fold induction (FI) activities were calculated by dividing relative light units (“RLU”) in ligand treated cells with RLU in DMSO treated cells (untreated control).

Question: How did the EC50 turn out when CCc1c(C(=O)NN(C(=O)c2cc(OC)c(C)c(OC)c2)C(C=C(C)C(C)(C)C)C(C)(C)C)ccc2c1OCCO2 (stereo not shown) [RG-115898, 3,5-dimethoxy-4-methyl-benzoic acid N-(1-tert-butyl-3,4,4-trimethyl-pent-2-enyl)-N′-(5-ethyl-2,3-dihydro-benzo[1,4]dioxine-6-carbonyl)-hydrazide] was run?
Answer: 280 nM
